Earlier results on one compound are cited in article PMC10454243, “Anticancer Study of a Novel Pan-HDAC Inhibitor MPT0G236 in Colorectal Cancer Cells” (International Journal of Molecular Sciences, 2023).

For this data set, the system named is HDAC8. Conditions: Class I; ref Reaction Biology Corporation website; cited from earlier work.

What is called IC50 is the point on the concentration scale where inhibition reaches its midpoint. As for `O=C(CCCCCCC(=O)Nc1ccccc1)NO` [SAHA, Suberoylanilide hydroxamic acid, reference compound], the IC50 was 306 nM.
